In this test the target is Phospholipase D2 (Homo sapiens, UniProt O14939).

Protein sequences, listed by entry. Tags and fused reporters are not part of them. Lines headed by an entry give the natural chain unless they say otherwise; changes in a name come on top.
UniProt O14939: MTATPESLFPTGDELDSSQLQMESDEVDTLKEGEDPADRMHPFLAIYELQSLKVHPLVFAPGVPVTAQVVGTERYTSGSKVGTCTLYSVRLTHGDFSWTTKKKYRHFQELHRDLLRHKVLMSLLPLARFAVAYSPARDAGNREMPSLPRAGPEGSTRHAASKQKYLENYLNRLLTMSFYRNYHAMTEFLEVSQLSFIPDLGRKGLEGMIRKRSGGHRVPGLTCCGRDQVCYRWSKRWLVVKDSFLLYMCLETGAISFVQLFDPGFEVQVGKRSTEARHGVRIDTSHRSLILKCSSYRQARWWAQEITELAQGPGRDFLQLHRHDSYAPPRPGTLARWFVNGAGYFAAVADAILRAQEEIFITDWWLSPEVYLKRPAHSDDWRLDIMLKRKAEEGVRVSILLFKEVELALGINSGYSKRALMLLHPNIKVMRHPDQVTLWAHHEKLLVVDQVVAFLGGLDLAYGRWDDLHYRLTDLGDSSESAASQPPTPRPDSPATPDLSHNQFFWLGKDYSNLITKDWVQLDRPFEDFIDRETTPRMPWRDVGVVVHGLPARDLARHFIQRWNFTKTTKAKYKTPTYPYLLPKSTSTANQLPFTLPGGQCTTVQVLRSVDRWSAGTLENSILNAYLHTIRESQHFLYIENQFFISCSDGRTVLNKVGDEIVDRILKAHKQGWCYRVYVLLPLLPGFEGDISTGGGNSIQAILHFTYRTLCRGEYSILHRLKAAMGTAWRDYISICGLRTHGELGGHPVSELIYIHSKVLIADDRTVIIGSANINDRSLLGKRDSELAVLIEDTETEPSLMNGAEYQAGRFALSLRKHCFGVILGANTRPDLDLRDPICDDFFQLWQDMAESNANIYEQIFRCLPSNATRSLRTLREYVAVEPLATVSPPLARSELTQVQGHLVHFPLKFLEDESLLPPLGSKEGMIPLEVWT

Molecules are shown by their SMILES.

As a reminder, the IC50 is the concentration that gives 50% inhibition. A high value points to weaker potency. `O=C(NCCN1CCC2(CC1)CNC(=O)N2c1cccc(F)c1)c1ccc2ccccc2c1` [US9453017, 1] showed an IC50 of 100 nM.
